The list shows a part of the results, in another mix than the full data. Calls of active or inactive are those of the source.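 The calls were made as follows: active = inhibition above a per-campaign cutoff: mean of compounds within control limits plus 3 SD (cut at about 15% in these data); inactive = the rest.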

Protein sequences, listed by entry. Tags and fused reporters are not part of them. Lines headed by an entry give the natural chain unless they say otherwise; changes in a name come on top.
UniProt P02675: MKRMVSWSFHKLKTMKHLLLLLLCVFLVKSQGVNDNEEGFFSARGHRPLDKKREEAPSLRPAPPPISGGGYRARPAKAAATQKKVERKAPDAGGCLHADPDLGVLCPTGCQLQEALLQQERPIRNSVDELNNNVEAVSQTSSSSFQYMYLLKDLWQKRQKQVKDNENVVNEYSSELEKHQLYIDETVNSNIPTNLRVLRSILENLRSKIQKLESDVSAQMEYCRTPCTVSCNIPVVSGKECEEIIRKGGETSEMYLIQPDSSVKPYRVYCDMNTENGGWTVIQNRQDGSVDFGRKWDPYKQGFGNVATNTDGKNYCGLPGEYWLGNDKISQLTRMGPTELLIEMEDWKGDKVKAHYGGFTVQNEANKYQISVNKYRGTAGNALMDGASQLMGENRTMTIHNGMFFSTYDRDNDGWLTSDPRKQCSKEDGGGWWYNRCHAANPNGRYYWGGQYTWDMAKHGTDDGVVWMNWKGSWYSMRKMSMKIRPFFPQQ

The target in the experiment is Fibrinogen beta chain (Homo sapiens) (UniProt P02675). In words: inhibitors of Tn6 peptide binding to fibrin DD(E), primary screen, biochemical, fluorescence polarization, human fibrin, Tn6 probe (AID 720509).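 Also: 0% = median of all compound wells on the plate and 100% = blocking peptide control.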 The settings on record: Fibrin DD(E) TRITC-Tn6 fluorescence polarization displacement; at 8.3 µM; hits give high values.
For `Cc1ccc(OCC(=O)OC2CN3CCC2CC3)cc1` (stereo not drawn), the inhibition was inactive: -0.22%.
For `O=[As](O)(c1cccs1)c1cccs1`, the inhibition is inactive: 8.2%.
As for `O=P1(Nc2ccc(Br)cn2)COc2ccccc2OC1`, the figure is inactive: -0.43%; as for `NS(=O)(=O)c1cccc(NC(=O)COC(=O)C(O)(c2ccccc2)c2ccccc2)c1`, inactive: -5.75%; as for `Nc1cccc([As](=O)(O)c2ccccc2)c1`, inactive: -2.98%.
As for `CC1CCC(C(C)C)C(OP(=O)(Nc2ccccn2)c2ccccc2)C1` (stereo not drawn), the figure is inactive: 0.13%; as for `Cc1ccc(C(=O)OC2CN3CCC2CC3)cc1` (stereo not drawn), inactive: 2%.
The figure for `Cc1nn(-c2ccccc2)c2c1P(=O)(N1CCOCC1)N(C)C(c1ccccc1)=N2` (stereo not drawn) is inactive: 2.76%; for `CCCC1OP(=O)(Nc2ccccc2)OCC1CC` (stereo not drawn) it is inactive: -3.2%; for `O=C(/C=C/c1ccccc1)OC1CN2CCC1CC2` (stereo not drawn) it is inactive: 0.88%.
Regarding `CN(C)C1(CNC(=O)c2ccc(S(C)(=O)=O)cc2)CCCCC1`, the inhibition is inactive: -11.7%.
The figure for `NC(=O)Nc1ccc([As](=O)(O)O)cc1` is inactive: 4.4%; for `CN(C(=O)Cc1ccc(Cl)c(Cl)c1)[C@H]1CC[C@@]2(CCCO2)C[C@@H]1N1CCCC1` it is inactive: 4.91%; for `O=[N+]([O-])c1ccc2c(c1)nnn2O` it is inactive: -7.05%.
For `CN(C)C(=O)c1cc([N+](=O)[O-])cc2c1-c1c(cc([N+](=O)[O-])cc1[N+](=O)[O-])C2=O`, the inhibition is inactive: -1.55%.
Turning to `CCOP1(=S)c2c(C)nn(CCC#N)c2N=C(c2ccc(F)cc2)N1C` (stereo not drawn), the inhibition is inactive: 5.5%.
The figure for `CN(C(=O)Cc1ccccc1)[C@@H]1CC[C@]2(CCCO2)C[C@H]1N1CCCC1` is inactive: -2.61%; for `N#CCCN(C(=O)COC(=O)C(O)(c1ccccc1)c1ccccc1)c1ccc(F)cc1` it is inactive: -2.66%; for `O=P(Nc1nccs1)(Oc1ccccc1)Oc1ccccc1` it is inactive: 3.55%.
As for `CCOP1(=S)c2c(C)nn(CCC#N)c2N=C(c2ccccc2F)N1C` (stereo not drawn), the figure is inactive: 8.29%; as for `Nc1ccccc1[As](=O)(O)c1ccccc1`, inactive: 4.62%; as for `O=C(O)COc1ccc([As](=O)(O)O)cc1[N+](=O)[O-]`, inactive: -3.59%.
The figure for `CCCOP(=S)(Nc1nc(N)cc(=O)[nH]1)OCCC` is inactive: 2.53%; for `Cc1ccc(NCCc2c([N+](=O)[O-])cc([N+](=O)[O-])cc2[N+](=O)[O-])cc1` it is inactive: 6.89%; for `Nc1cccc2c([As](=O)(O)O)cccc12` it is active: 26.9%.
`CCOP(=O)(Nc1cccc2ccccc12)OCC`: the inhibition was inactive: 2.42%.
The figure for `COc1cc(C2NCCC3(OCCO3)C2(C)C)cc(OC)c1OC` (stereo not drawn) is inactive: 3.81%; for `CS(=O)(=O)c1ccc(Cl)c(NC(=O)COC(=O)C(O)(c2ccccc2)c2ccccc2)c1` it is inactive: -5.57%.
The figure for `O=[As](O)(O)c1cccnc1` is inactive: -3.52%; for `COc1cc(C(=O)NCC2(N3CCOCC3)CCCCC2)cc(Cl)c1OC(C)C` it is inactive: -7.37%; for `O=C(OC1CN2CCC1CC2)c1ccc(Cl)cc1` (stereo not drawn) it is inactive: 4.08%.
As for `Cc1cccc(OCC(=O)OC2CN3CCC2CC3)c1` (stereo not drawn), the figure is inactive: -5.47%; as for `O=[As](O)(c1cccc(O)c1)c1cccc(O)c1`, inactive: -8.86%.
Turning to `COc1ccc(N/C(=N/P(=O)(N2CCOCC2)N2CCOCC2)N2CCOCC2)cc1`, the inhibition is inactive: -1.04%.
The figure for `O=[N+]([O-])c1cc(Oc2ccc([N+](=O)[O-])cc2C(F)(F)F)cc([N+](=O)[O-])c1` is inactive: -0.79%; for `Cc1cc(=O)[nH]c(N[N+](=O)[O-])n1` it is inactive: -8.85%.
The figure for `O=C(OC1CN2CCC1CC2)C12CC3CC(CC(C3)C1)C2` (stereo not drawn) is inactive: -9.52%; for `Cc1c2c(nc3ccccc13)SC(C(Cl)Cl)C2` (stereo not drawn) it is inactive: 10.6%.
The figure for `COc1cc(I)ccc1[As](=O)(O)O` is inactive: -0.25%; for `COc1ccc2nc(NP(=O)(c3ccccc3)c3ccccc3)sc2c1` it is inactive: 6.77%; for `O=P1(N(CCCl)CCCl)OCCCN1CCCl` (stereo not drawn) it is inactive: -11.1%.
Regarding `O=P1(N(CCCl)CCCl)Nc2ccccc2N1`, the inhibition is inactive: -0.55%.
The figure for `COC(=O)C1(C)COP(=O)(N2CCCCCC2)OC1` (stereo not drawn) is inactive: 1.32%; for `CC(C)c1ccc(OP(=O)(Nc2ccccn2)Oc2ccccc2F)cc1` (stereo not drawn) it is inactive: -4.75%.
As to `ClCCSc1nnc(-c2cccnc2)o1`, the inhibition was inactive: -4.01%.
The figure for `CC(C)NC(=O)NP(=O)(Oc1ccccc1)Oc1ccccc1` is inactive: 5.69%; for `CCN(CC)C(=S)SC(NC=O)C(Cl)(Cl)Cl` (stereo not drawn) it is inactive: -0.33%; for `O=C(OC1CN2CCC1CC2)c1cccc2[nH]cnc12` (stereo not drawn) it is inactive: -4.75%.
As for `O=[N+]([O-])c1ccc(-c2cc([N+](=O)[O-])c(O)c([N+](=O)[O-])c2)cc1`, the figure is inactive: -9.63%; as for `COc1cc(C(=O)NCC2(N3CCOCC3)CCCCC2)ccc1OCC(C)C`, inactive: 2.17%.
The figure for `O=[As](O)(c1ccc(O)cc1)c1ccccc1O` is inactive: -0.88%.
For the molecule `C[As](=O)(O)c1cccc(C(=O)O)c1`, the inhibition was inactive: 10.3%.
As for `Cc1ccc2nc3c(c(C)c2c1)CC(C(Cl)Cl)S3` (stereo not drawn), the figure is inactive: 2.09%; as for `[N-]=[N+]=NC1CCCCC1NC(=O)c1cc([N+](=O)[O-])cc([N+](=O)[O-])c1` (stereo not drawn), inactive: 6.93%; as for `Cc1ccc(OP(=O)(Nc2ccc([N+](=O)[O-])cn2)Oc2ccc(C)cc2)cc1`, inactive: 2.05%.
As for `CCOC(=O)Nc1cccc([As](=O)(O)O)c1`, the figure is inactive: -0.45%.
The figure for `O=[N+]([O-])c1ccc(Nc2ccc(Oc3ccc([N+](=O)[O-])cc3[N+](=O)[O-])cc2)c([N+](=O)[O-])c1` is inactive: 4.27%; for `O=P(Nc1ccccn1)(c1cccc2ccccc12)c1cccc2ccccc12` it is inactive: 4.49%.
On to `Cc1cc(SC(NC=O)C(Cl)(Cl)Cl)ncn1` (stereo not drawn), for which the inhibition is inactive: 1.99%.
The figure for `CC1CCNP(=O)(N(CCCl)CCCl)O1` (stereo not drawn) is inactive: -5.94%.
The figure for `CCOC(=O)Nc1ccc([As](=O)(O)O)c(O)c1` is inactive: -0.56%; for `O=C(O)C(O)c1ccc(N(CCCl)CCCl)cc1` (stereo not drawn) it is inactive: -5.77%; for `Cc1cc(SC(NC(=O)c2ccccc2)C(Cl)(Cl)Cl)nc(C(C)C)n1` (stereo not drawn) it is inactive: -6.4%.
The figure for `CCCCOc1ccc(C(=O)NCC2(N3CCCCC3)CCCCC2)cc1OC` is inactive: 8.54%; for `COP(=O)(OC)N1CC1c1ccccc1` (stereo not drawn) it is inactive: 4.99%; for `CCOC(=O)c1ccc(NC(=O)C(C)(CCl)SC)cc1` (stereo not drawn) it is inactive: -0.93%.
As to `O=C(OC1CN2CCC1CC2)c1cccc([N+](=O)[O-])c1` (stereo not drawn), the inhibition was inactive: -6.85%.
As for `CCC(C)N(CC(C)C)C(=S)SC(NC(C)=O)C(Cl)(Cl)Cl` (stereo not drawn), the figure is inactive: 5.79%; as for `COC(=O)C1(C)COP(=O)(N2CCCC2)OC1` (stereo not drawn), inactive: 3.73%.
As for `COP1(=S)c2c(C)nn(CCC#N)c2N=C(c2ccc(F)cc2)N1C` (stereo not drawn), the inhibition was inactive: 2.47%.
The figure for `O=C(Nc1ccncc1[N+](=O)[O-])c1ccc([N+](=O)[O-])cc1[N+](=O)[O-]` is inactive: 1.83%; for `O=C(COc1ccccc1)OC1CN2CCC1CC2` (stereo not drawn) it is inactive: 2.77%; for `O=C(O)C(=O)c1ccc(N(CCCl)CCCl)cc1` it is inactive: -2.4%.

For the origin of these results see PubChem BioAssay AID720509 (The Scripps Research Institute Molecular Screening Center, 2013).
